Assay results taken from patent US4801534A, “Water soluble zanthylium derivative substrates” (Coulter Electronics, Inc., priority 1987, dated 1989).

Conditions: 37° C., even with the addition of 15% ethanol

Substance: (Cbz-L-Pro-Arg)2 -Rhodamine 110 [(Cbz-Pro-Arg)2 -Rhodamine 110, reference compound]
- solubility: up to 120 micromolar
